Compound activity deposited in PubChem by National Center for Advancing Translational Sciences (NCATS).
Shown are actives, neighbours in structure and some others; about 16% of the full set was active somewhere.
DT40 TDP1 no CPT: qHTS for Inhibitors of human tyrosyl-DNA phosphodiesterase 1 (TDP1): qHTS in cells in absence of CPT; 15% of 420,000 active; AID 686978, 2013; Potency, µM (titrated, usually from 46.2 µM), for the others: at the highest dose activity change, negative = growth inhibition, actives largely listed as inhibitors; DT40 Tdp1-/- hTDP1 cells, no CPT, ATP luminescence, 48 h; also: potency is read from the fitted curve at half-maximal effect; % is scaled to controls: 0 for no effect and ±100 for the full control effect; nearly all actives have a fitted effect of over 55% in size
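DT40 Tdp1-/-;hTDP1 cells, no CPT (DMSO vehicle only), 400 cells/well; compounds pin-transferred; ≥48 hr, 37 °C; CellTiter-Glo 30 min RT dark, luminescence read.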
miR-21 FLuc: raises the signal of a miR-21 reporter; HeLa miR-21 FLuc reporter, luciferase, 48 h; Potency, µM (top dose mostly 38.3 µM), for inactives: at the highest dose reporter change, positive = more light; AID 2288; 340,000 tested, under 10 active; active = well fitted rising curve with a large enough effect; inconclusive = small, poorly fitted or top-dose-only effect; inactive = no such curve, though single readings can be large or run the other way;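 note: % of control where 0% means no effect; miR-21 action dims this reporter so a rising signal means less miR-21 action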
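Luminescence from a firefly luciferase reporter carrying a miR-21 binding site downstream, stably expressed under a CMV promoter in HeLa cells that make miR-21 endogenously, reports miRNA modulation after 48 h compound exposure up to approximately 40uM final.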
TDP1 inh: inhibitors of human tyrosyl-DNA phosphodiesterase TDP1 | Q9NUW8 | 0.28% of 350,000 active | AID 485290 | Potency, µM (highest dose often 130 µM), for the others: at the top dose activity change, negative = inhibition, most hits filed as inhibitors | recombinant TDP1, AlphaScreen DNA substrate cleavage; also: potency is read from the fitted curve at half-maximal effect; % is scaled to controls: 0 for no effect and ±100 for the full control effect; nearly all actives have a fitted effect of over 40% in size
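Here, a 5' biotin and 3' phosphotyrosine-FITC DNA oligonucleotide reports Tdp1 activity: intact substrate bridges AlphaScreen beads, while cleavage leaves a 3' phosphate and drops signal. All incubations at room temperature.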
TDP1 cell CPT: growth inhibition of DT40 Tdp1-/-;hTDP1 cells with camptothecin (screen for TDP1 inhibitors) | chicken DT40 Tdp1-/-;hTDP1 cells + 20 nM CPT, ATP luminescence, 48 h | Potency, µM (titrated, usually from 46.2 µM), without a hit: at the highest dose activity change, negative = growth inhibition, actives largely listed as inhibitors | AID 686979 | 12% of 420,000 active; also: potency is read from the fitted curve at half-maximal effect; % is scaled to controls: 0 for no effect and ±100 for the full control effect; nearly all actives have a fitted effect of over 55% in size
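Chicken DT40 Tdp1-/- cells stably complemented with human TDP1 were seeded at 400 cells/well in medium containing 20 nM camptothecin, exposed to pin-transferred compounds, and grown at 37 °C for at least 48 hr. Viability was read as ATP luminescence.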
uPA surface inh: blocks generation of uPA at the cell surface; cell surface uPA generation assay, qHTS; 0.31% of 330,000 active; Potency, µM (top dose mostly 38.3 µM), without a hit: at the highest dose activity change, negative = inhibition, most hits filed as inhibitors; active = well fitted inhibition curve with a large enough effect; inconclusive = small, poorly fitted or top-dose-only effect; inactive = no such curve, though single readings can be large or run the other way; tested in mouse RAW 264.7 cells; also: potency is read from the fitted curve at half-maximal effect; % is scaled to controls: 0 for no effect and ±100 for the full control effect; nearly all actives have a fitted effect of over 55% in size
An asterisk follows results filed as active; ? = inconclusive; / = no result given; [ ] = another dose, or the depositor's remark. Unless noted, calls follow the shape of the dose curve; as a rule, active = well fitted curve in the direction sought with a large enough effect; inconclusive = small, poorly fitted or top-dose-only effect, or another doubt; inactive = no such curve, though single readings can be large; an effect the other way counts as inactive or inconclusive.

SMILES | DT40 TDP1 no CPT | miR-21 FLuc | TDP1 inh | TDP1 cell CPT | uPA surface inh
CCCCNC(=O)CN(CCc1ccccc1)S(C)(=O)=O | -6% | -2% | 0% | ? | /
CC(Oc1ccccc1)C(=O)Nc1cccc(-c2nc3ccccc3[nH]2)c1 (configuration not stated) | ? | 13% | 7% | ? | 1%
CC(C)COc1ccc(C(=O)Nc2cccc(-c3nc4ccccc4[nH]3)c2)cc1 | 21µM* | 20% | 2%[12.3 µM] | 18µM* | /
COC(=O)N/N=C/c1cc(Cl)c(OCc2ccccc2F)c(OC)c1 | 23µM* | 0% | / | ? | 4%
Cn1c(-c2c(N)n(CCc3ccccc3)c3nc4ccccc4nc23)nc2ccccc21 | 21µM* | 20% | 9% | 26µM* | /
COCCCn1c(N)c(-c2nc3ccccc3n2C)c2nc3ccccc3nc21 | 23µM* | 21% | 0% | 26µM* | /
N#Cc1cccc(NC(=O)N2CCC3(CC2)CCN(C(=O)c2cnccn2)CC3)c1 | -2% | / | / | -4% | /
Cc1ccc(-c2csc3ncn(-n4c(C)ccc4C)c(=O)c23)o1 | 18µM* | ? | 13% | 23µM* | 8%
Cc1sc2ncn(-n3c(C)ccc3C)c(=O)c2c1C | ? | -6% | 3% | ? | 4%
COc1ccc(-c2nc(C(=O)NCCCN3CCOCC3)cc3c2[nH]c2ccccc23)cc1OC | 3.7µM* | 12% | / | 13µM* | 14%
Cc1ccc(-c2cc(C(=O)NCCCN3CCOCC3)c3ccccc3n2)cc1 | ? | / | / | -21% | -1%
Cc1ccc(-c2nc(C(=O)NCCCN3CCOCC3)cc3c2[nH]c2ccccc23)cc1 | 3.3µM* | 20% | / | 3.3µM* | -28%
COc1ccc(C(=O)N/N=C\c2ccc(OC)c(COc3ccccc3Br)c2)c(OC)c1 | ? | 15% | 5%[56.1 µM] | 23µM* | -19%
COc1ccc(/C=N\NC(=O)c2ccccc2Br)cc1COc1ccccc1 | ? | -7% | 5% | ? | ?
COc1ccc(/C=N\NC(=O)c2ccc(F)cc2)cc1COc1ccccc1C(N)=O | ? | -4% | 7% | -24% | 0%
COc1cc(OC)cc(C(=O)N/N=C/c2ccc(OC)c(COc3ccc(F)cc3)c2)c1 | 2.9µM* | 22% | 4% | 2.3µM* | -11%
COc1ccc(C(=O)N/N=C\C(C)=C\c2ccccc2)cc1OC | 16µM* | / | / | ? | -19%
COc1ccc(/C=N/NC(=O)c2ccoc2C)cc1CN1CCN(c2ccc(F)cc2)CC1 | 15µM* | -10% | / | ? | 1%
CC(/C=N/NC(=O)c1ccc(Br)cc1)=C\c1ccccc1 | -17% | -9% | / | -9% | -5%
Cc1cc(NC(=O)CN2C(=O)CC(c3ccco3)Sc3ccccc32)no1 (configuration not stated) | ? | -5% | 3% | ? | 3%
COc1ccc(C(=O)N/N=C/c2ccc(OC)c(COc3c(F)c(F)cc(F)c3F)c2)cc1 | 1% | 4% | 1% | ? | -5%
COc1ccc(OCc2cc(/C=N\NC(=O)c3ccccc3)ccc2OC)cc1 | 5.2µM* | -19% | 4% | 4.6µM* | -17%
C=CCN1C(=O)c2ccc(C(=O)OCC(=O)N(CC)C3CCS(=O)(=O)C3)cc2C1=O (configuration not stated) | 6% | / | 0% | 8% | -6%
CCOc1ccc(-c2nc(CN(Cc3ccccc3)C[C@@H]3CCC(=O)N3)c(C)o2)cc1 | 21µM* | -20% | / | ? | 1%
c1ccc2oc(-c3[nH]ncc3CN(Cc3ccncc3)CC3CCCO3)cc2c1 (configuration not stated) | 26µM* | -9% | 7% | ? | -4%
O=C1CC[C@@H](CN(Cc2ccccc2)Cc2cn[nH]c2-c2cc3ccccc3o2)N1 | 16µM* | 6% | 8% | 26µM* | 12%
CCc1ccc(NC(=O)CCS(=O)(=O)c2ccc3c(c2)oc(=O)n3C)cc1 | -19% | 3% | -7% | -27% | /
Cc1ccc(S(=O)(=O)NC(=O)C2(C)CCN2C(=O)c2ccccc2CCc2ccccc2)nc1 (configuration not stated) | -9% | / | / | 0% | /
CCCC[C@@H]1CCCO[C@@](C(=O)NCc2ccccn2)(C(F)(F)F)C1 | ? | / | 11% | 18µM* | 12%
O=C(O)COc1c(-c2ccccc2)oc2ccccc2c1=O | -6% | 1% | 7% | -18% | /
CCCc1c(C)c(C#N)c2nc3ccccc3n2c1NCCCN1CCOCC1 | ? | -5% | 6% | ? | 2%
O=c1[nH]c2c(-c3nc(-c4ccc(Cl)cc4)cs3)c(O)cn2c2ccccc12 | 2.8µM* | / | / | 4µM* | /
O=c1[nH]c2c(-c3nc(-c4ccc(F)cc4)cs3)c(O)cn2c2ccc(Br)cc12 | -10% | / | / | -25% | /
COc1ccc(NC(=O)CSc2nnnn2C2CCCCC2)c(OC)c1 | -12% | 0% | / | -7% | 2%
CCOC(=O)c1c(NC(=O)c2ccc(Br)cc2)sc2c1CCCC2 | -17% | -1% | -3% | 13% | /
CCOC(=O)c1c(NC(=O)C(C)OC(=O)C2=COCCO2)sc2c1CCCC2 (configuration not stated) | ? | / | 2%[56.1 µM] | ? | 12%
CCOC(=O)c1c(NC(=O)C2C3C=CC(C3)C2(C)C(=O)O)sc2c1CCCC2 (configuration not stated) | 18µM* | 7% | ? | 13µM* | 4%
CCOC(=O)c1c(NC(=O)c2ccc(-n3cnnn3)cc2)sc2c1CCCC2 | 16µM* | -4% | 5% | 12µM* | 9%
CCOC(=O)c1c(NC(=O)c2ccc(N3C(=O)[C@@H]4[C@H](C3=O)[C@H]3C=C[C@@H]4C3)cc2)sc2c1CCCC2 | 23µM* | -2% | -5% | -85% | 12%
CCOC(=O)c1c(NC(=O)C(C)OC(=O)c2ccc(NC(=O)CC#N)cc2)sc2c1CCCC2 (configuration not stated) | ? | / | / | 23µM* | 4%
CC(=O)Nc1cccc(NC(=O)Cc2csc(COc3cccc(C)c3)n2)c1 | 21µM* | 2% | -1% | 15µM* | /
COc1ccc(NC(=O)Cc2csc(COc3cccc(C)c3)n2)cc1OC | 26µM* | 11% | 6% | 18µM* | /
CCOC(=O)C1CCCN(C(=O)c2cc(Nc3ccc(OC)c(OC)c3)nc3ccccc23)C1 (configuration not stated) | 16µM* | -2% | 4% | ? | -10%
O=C(c1cc2c(Cl)nc3ccccc3c2s1)N1CCCCC1 | ? | -47% | 5% | ? | /
CCOC(=O)C1CCCN(C(=O)c2cc3c(Cl)nc4ccccc4c3s2)C1 (configuration not stated) | 18µM* | 23% | 0% | ? | /
